Here are results for one molecule from PubChem BioAssay AID602330 (Sanford-Burnham Center for Chemical Genomics, 2012).

The chains behind the UniProt entries cited, without tags or fusion partners.
UniProt P08253, whole entry: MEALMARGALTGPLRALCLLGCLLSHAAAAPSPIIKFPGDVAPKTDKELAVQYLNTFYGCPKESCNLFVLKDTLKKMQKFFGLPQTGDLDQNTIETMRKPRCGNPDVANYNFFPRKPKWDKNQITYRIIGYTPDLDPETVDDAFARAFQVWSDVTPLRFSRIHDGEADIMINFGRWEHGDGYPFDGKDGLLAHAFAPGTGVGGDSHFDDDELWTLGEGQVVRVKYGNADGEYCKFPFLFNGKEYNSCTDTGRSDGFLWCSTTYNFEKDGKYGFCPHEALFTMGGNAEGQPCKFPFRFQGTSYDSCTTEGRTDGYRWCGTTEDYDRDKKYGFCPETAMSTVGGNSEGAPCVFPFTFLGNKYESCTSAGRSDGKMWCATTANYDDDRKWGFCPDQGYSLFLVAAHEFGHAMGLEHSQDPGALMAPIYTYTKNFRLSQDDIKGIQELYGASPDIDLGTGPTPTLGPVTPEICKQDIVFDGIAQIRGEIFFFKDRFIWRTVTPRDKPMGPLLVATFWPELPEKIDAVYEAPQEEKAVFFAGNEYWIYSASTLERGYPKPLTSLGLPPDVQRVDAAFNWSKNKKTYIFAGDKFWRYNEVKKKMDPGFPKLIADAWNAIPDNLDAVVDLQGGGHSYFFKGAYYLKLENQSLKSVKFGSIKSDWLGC

Only a part is listed here, and it is no random draw. Active and inactive are the calls of the source. No stated cut-off is given here; in the data, active means inhibition above about 40%; inactive means the rest.

The target in this test is 72 kDa type IV collagenase (Homo sapiens) (UniProt P08253). The test is described as follows: MMP-2 enzyme inhibition, confirmation, counter-screen for RPN11 inhibitor project, biochemical, fluorescence, single concentration (AID 602330).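 Further: human MMP-2 activated beforehand with APMA.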 The settings on record: recombinant MMP-2, FRET peptide cleavage fluorescence; at 20 µM; active compounds read high.
As for `CCCCCCCCCCCCCCCC1C[N+](C)(C)CCOP(C)(=O)O1` (stereo unspecified), the inhibition (in general, the relative decrease from the control value, in per cent) was inactive: -4.39%.
